Reference: PubChem BioAssay AID2642 (Johns Hopkins Ion Channel Center, 2010)
The list shows a part of the results, in another mix than the full data. Calls of active or inactive are those of the source.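 Rule for the calls: active = compounds whose thallium flux B-score, printed positive for inhibition, exceeds three library SD while starting fluorescence stays within three; inactive = the rest.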

Target: Potassium voltage-gated channel subfamily KQT member 1 (Homo sapiens) (UniProt P51787)
Assay: KCNQ1 potassium current blockers – cell-based, thallium flux, high-throughput, primary screen (AID 2642);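 note: channel opened by potassium depolarization with thallium stimulus after 20 min compound exposure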
Settings: CHO-K1 KCNQ1, FluxOR thallium flux fluorescence; at 10 µM; stronger effect = higher value

SMILES | B-score
CN(C)C(=O)c1cc([N+](=O)[O-])cc2c1-c1c(cc([N+](=O)[O-])cc1[N+](=O)[O-])C2=O | active: 10
Nc1cccc2c([As](=O)(O)O)cccc12 | active: 6
COc1cc(C(=O)NCC2(N3CCOCC3)CCCCC2)cc(Cl)c1OC(C)C | active: 7
CCC1=CC2Cc3nc4ccc(Cl)cc4c(N)c3C(C1)C2 (stereo unspecified) | active: 7
O=[N+]([O-])c1ccc(O)c(/C=N/Nc2ccc([N+](=O)[O-])cc2[N+](=O)[O-])c1 | active: 15
O=[N+]([O-])c1cc([N+](=O)[O-])c(CCN2CCOCC2)c([N+](=O)[O-])c1 | active: 6
